The list shows a part of the results, in another mix than the full data. Some salts or complexes appear as unconnected parts, following the source record. Active and inactive are the calls of the source.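 Rule for the calls: active = melting temperature shift of at least 10% of the positive control shift, at one fixed dose; inactive = the rest.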
The compounds below were run on Glutamate receptor ionotropic, NMDA 3A (GRIN3A) ligand-binding domain (assay: NR3A LBD thermal stabilization by compounds – biophysical, differential scanning fluorimetry, uHTS, primary screen (AID 1259313)). Details: at 25 µM, active compounds read high, 0% = protein alone, 100% = glycine-bound protein.

Row | Structure (SMILES) | Tm shift relative to glycine control
1 | COc1ccccc1OP(C)(=O)Nc1ccc(Br)cc1 (stereo not drawn) | inactive: -0.16%
2 | CN(C)CCOC(=O)C(O)(c1ccccc1)C1CCCC1 (stereo not drawn) | inactive: 1.09%
3 | COc1ccc(OP(C)(=O)Nc2ccccn2)cc1 (stereo not drawn) | inactive: -4.1%
4 | Cc1c(NP(C)(=O)Oc2ccc(C(C)C)cc2)c(=O)n(-c2ccccc2)n1C (stereo not drawn) | inactive: -0.71%
5 | O=[N+]([O-])c1cc([N+](=O)[O-])c(Nc2ccccn2)c([N+](=O)[O-])c1 | inactive: 2.37%
6 | CCc1ccc(OP(C)(=O)O)cc1 | inactive: -0.88%
7 | COc1ccccc1OP(C)(=O)Nc1ccc(C)cc1C (stereo not drawn) | inactive: 0.26%
8 | CP(=O)(Nc1ccccn1)Oc1ccccc1 (stereo not drawn) | inactive: -2.23%
9 | Cc1cc(C)cc(OP(C)(=O)Nc2cccc(C(F)(F)F)c2)c1 (stereo not drawn) | inactive: -0.5%
10 | O=C1C(O)=C([N+](=O)[O-])C(=O)C(O)=C1[N+](=O)[O-] | inactive: 1.95%
11 | COc1ccc(OP(C)(=O)Nc2ccccc2Br)cc1 (stereo not drawn) | inactive: -3.72%
12 | COc1ccccc1OP(C)(=O)Nc1ccc(C)c(C)c1 (stereo not drawn) | inactive: -0.37%
13 | CP(=O)(Nc1ccc(Cl)cc1Cl)Oc1ccccc1 (stereo not drawn) | inactive: -0.24%
14 | CCCCCCCCCCCCCCCC1C[N+](C)(C)CCOP(C)(=O)O1 (stereo not drawn) | inactive: -10.4%
15 | CP(=O)(OCCOc1ccccc1)OCCOc1ccccc1 | inactive: -0.75%
16 | Nc1ccc2c(ccc3cccnc32)n1.O=[N+]([O-])c1cc([N+](=O)[O-])c(O)c([N+](=O)[O-])c1 | inactive: -0.36%
17 | CP(=O)(OC12CC3CC(CC(C3)C1)C2)OC12CC3CC(CC(C3)C1)C2 | inactive: -1.14%
18 | CCOC(=O)c1ccc(NP(C)(=O)Oc2ccc(Cl)cc2)cc1 (stereo not drawn) | inactive: -1.66%
19 | COc1ccc(OP(C)(=O)Nc2ccc(Br)cc2)cc1 (stereo not drawn) | inactive: -2.19%
20 | CCN(CC)CC(O)COC(=O)C(O)(c1ccccc1)C1CCCCC1 (stereo not drawn) | inactive: 0.17%
21 | CCc1ccc(OP(C)(=O)Nc2cccnc2)cc1 (stereo not drawn) | inactive: -2.73%
22 | CP(=O)(Oc1ccccc1)N1CCOC1=O (stereo not drawn) | inactive: -3.98%
23 | O=C(OCCCN1CCCC1)C(O)(c1ccccc1)C1CCCCC1 (stereo not drawn) | inactive: 1.13%
24 | COc1ccccc1OP(C)(=O)Nc1c(C)n(C)n(-c2ccccc2)c1=O (stereo not drawn) | inactive: -0.95%

Row | Structure (SMILES) | Tm shift relative to glycine control
25 | CP(=O)(Nc1ccc(Cl)cc1)Oc1ccc(F)cc1 (stereo not drawn) | inactive: -1.03%
26 | COc1ccccc1OP(C)(=O)Nc1ccccc1Br (stereo not drawn) | inactive: -0.77%
27 | CC(C)(C)c1ccc(OP(C)(=O)O)cc1 | inactive: -1.33%
28 | CN(C)C(=O)c1c([N+](=O)[O-])cc([N+](=O)[O-])cc1[N+](=O)[O-] | inactive: -3.51%
29 | CP(=O)(Nc1ccc(SC(F)(F)F)cc1)Oc1ccc(F)cc1 (stereo not drawn) | inactive: 1.09%
30 | CCOP(C)(=S)SCC(=O)NC(C)(CC)C(=O)O (stereo not drawn) | inactive: -3.66%
31 | CP(=O)(Nc1ccc2c(c1)OCCO2)Oc1ccccc1 (stereo not drawn) | inactive: -5.29%
32 | Cc1ccccc1NP(C)(=O)Nc1ccccc1C | inactive: -5.26%
33 | COc1ccc(OP(C)(=O)Nc2cccc(Br)c2)cc1 (stereo not drawn) | inactive: 0.51%
34 | COc1ccc(NP(C)(=O)Oc2ccccc2OC)cc1 (stereo not drawn) | inactive: -1.34%
35 | CN(C)CCOC(=O)C(O)(c1ccccc1)C1CCCCC1 (stereo not drawn) | inactive: -0.9%
36 | O=[N+]([O-])c1cc([N+](=O)[O-])c(NCC2CCS(=O)(=O)C2)c([N+](=O)[O-])c1 (stereo not drawn) | inactive: -2.72%
37 | Cc1cc(-c2cccc3ccccc23)c(C)cn1.O=[N+]([O-])c1cc([N+](=O)[O-])c(O)c([N+](=O)[O-])c1 | inactive: -7.14%
38 | O=[N+]([O-])c1ccc(OP2(=O)COCCO2)cc1 (stereo not drawn) | inactive: 0.78%
39 | Cc1c(C(c2ccc3c(c2)OCO3)c2c(C)n(C)n(-c3ccccc3)c2=O)c(=O)n(-c2ccccc2)n1C.O=[N+]([O-])c1cc([N+](=O)[O-])c(O)c([N+](=O)[O-])c1 | inactive: -0.93%
40 | COc1ccc(OP(C)(=O)Nc2ccc(SC(F)(F)F)cc2)cc1 (stereo not drawn) | inactive: -0.68%
41 | CCOC(=O)c1ccc(NP(C)(=O)Oc2ccc(F)cc2)cc1 (stereo not drawn) | inactive: -4.29%
42 | CCN(CC)CCCOC(=O)C(O)(c1ccccc1)C1CCCCC1 (stereo not drawn) | inactive: 0%
43 | Cc1c([N+](=O)[O-])cc([N+](=O)[O-])c(Br)c1[N+](=O)[O-] | inactive: -2.36%
44 | O=[N+]([O-])c1cc([N+](=O)[O-])c(OC2CCCCC2O)c([N+](=O)[O-])c1 (stereo not drawn) | inactive: -0.88%
45 | CCCCCOc1ccc(NP(C)(=O)Oc2ccc(Cl)cc2Cl)cc1 (stereo not drawn) | inactive: -5.89%
46 | CP(=O)(Nc1ccccc1)Oc1ccc(F)cc1 (stereo not drawn) | inactive: -2.52%
47 | CC(C)c1ccc(OP(C)(=O)Nc2ccc(SC(F)(F)F)cc2)cc1 (stereo not drawn) | inactive: -28%
48 | CP(=O)(Nc1ccccc1F)Oc1ccccc1 (stereo not drawn) | inactive: -2.66%

Row | Structure (SMILES) | Tm shift relative to glycine control
49 | O=C(OCCN1CCN(CCOCc2ccccc2)CC1)C(O)(c1ccccc1)c1ccccc1 | inactive: 0.86%
50 | O=C(OC1CN2CCC1CC2)c1ccc([N+](=O)[O-])cc1 (stereo not drawn) | inactive: -1.91%
51 | COc1ccc2c(c1O)-c1c(O)c(OC)cc3c1[C@H](C2)[N+](C)(C)CC3.O=[N+]([O-])c1cc([N+](=O)[O-])c([O-])c([N+](=O)[O-])c1[O-] | inactive: 1.74%
52 | COc1ccccc1OP(C)(=O)Nc1cccc(Br)c1 (stereo not drawn) | inactive: -2.15%
53 | Cc1cc(C)cc(OP(C)(=O)Nc2ccc(C)cc2C)c1 (stereo not drawn) | inactive: -12.6%
54 | CCOC(=O)c1ccc(NP(C)(=O)Oc2cc(C)cc(C)c2)cc1 (stereo not drawn) | inactive: 6%
55 | Cc1cc(C)cc(OP(C)(=O)Nc2ccccn2)c1 (stereo not drawn) | inactive: 0%
56 | CP(=O)(Nc1cccc(Br)c1)Oc1ccccc1 (stereo not drawn) | inactive: -6.95%
57 | Cc1ccc(C)c(NP(C)(=O)Oc2ccccc2)c1 (stereo not drawn) | inactive: 0.35%
58 | O=C(O)c1cccc(Nc2c([N+](=O)[O-])cc([N+](=O)[O-])cc2[N+](=O)[O-])c1 | inactive: -0.41%
59 | CC1=NCCc2c1[nH]c1ccccc21.O=[N+]([O-])c1cc([N+](=O)[O-])c(O)c([N+](=O)[O-])c1 | inactive: -0.71%
60 | CCOC(=O)C(CC)C1=NC(C)(C)Cc2ccccc21.O=[N+]([O-])c1cc([N+](=O)[O-])c(O)c([N+](=O)[O-])c1 (stereo not drawn) | inactive: -7.09%
61 | CC1=C2N=C(C=C3N=C(C(C)=C4[N-][C@@](C)([C@@H]5N=C1[C@](C)(CCC(=O)NC[C@@H](C)OP(=O)([O-])O[C@H]1[C@@H](O)[C@@H](n6cnc7cc(C)c(C)cc76)O[C@@H]1CO)[C@H]5CC(N)=O)[C@@](C)(CC(N)=O)[C@@H]4CCC(N)=O)[C@@](C)(CC(N)=O)[C@@H]3CCC(N)=O)C(C)(C)[C@@H]2CCC(N)=O.[C-]#N.[Co+3] | inactive: 1.75%
62 | O=[N+]([O-])c1cc([N+](=O)[O-])c(Nc2nnnn2CCO)c([N+](=O)[O-])c1 | inactive: -12.8%
63 | COc1ccccc1OP(C)(=O)Nc1c(C)cccc1C (stereo not drawn) | inactive: -0.17%
64 | CN1CCCCC1COC(=O)C1(O)c2ccccc2CCc2ccccc21 (stereo not drawn) | inactive: 1.56%
65 | CCCOc1ccc(NP(C)(=O)Oc2ccc(Cl)cc2)cc1 (stereo not drawn) | inactive: 1.19%
66 | CP(=O)(Nc1ccc(SC(F)(F)F)cc1)Oc1ccccc1 (stereo not drawn) | inactive: 0.39%
67 | O=[N+]([O-])c1cc([N+](=O)[O-])c(-n2nnc3ccccc32)c([N+](=O)[O-])c1 | inactive: -17.5%
68 | O=[N+]([O-])c1cc([N+](=O)[O-])c(-c2cnn(-c3ccccc3)c2)c([N+](=O)[O-])c1 | inactive: 3.02%
69 | Cc1nc2ccc3ccccc3c2s1.O=[N+]([O-])c1cc([N+](=O)[O-])c(O)c([N+](=O)[O-])c1 | inactive: -26.8%
70 | CP(=O)(Oc1ccccc1)OC(c1ccccc1)C(F)(F)F (stereo not drawn) | inactive: -0.24%
71 | Cc1cccc(C)c1OP(C)(=O)Nc1ccc(SC(F)(F)F)cc1 (stereo not drawn) | inactive: 0.82%
72 | CP(=O)(Nc1ccc(SC(F)(F)F)cc1)Oc1ccc(Cl)cc1 (stereo not drawn) | inactive: -6.43%

Row | Structure (SMILES) | Tm shift relative to glycine control
73 | Cc1cc(C)cc(OP(C)(=O)Nc2ccc(SC(F)(F)F)cc2)c1 (stereo not drawn) | inactive: -2.17%
74 | CP(=O)(NC(=O)Nc1ccccc1)Oc1ccccc1 (stereo not drawn) | inactive: 0.18%
75 | CCc1ccc(OP(C)(=O)N2CCN(c3ccc([N+](=O)[O-])cc3)CC2)cc1 (stereo not drawn) | inactive: 3.12%
76 | CCOP(C)(=S)SCC(=O)NC(C)C(=O)O (stereo not drawn) | inactive: 0.16%
77 | CCOC(=O)c1ccc(NP(C)(=O)Oc2ccc(OC)cc2)cc1 (stereo not drawn) | inactive: -0.39%
78 | O=[N+]([O-])c1cc([N+](=O)[O-])c(O)c([N+](=O)[O-])c1.c1ccc(Oc2ccncc2)cc1 | inactive: -3.42%
79 | CP(=O)(Nc1ccccn1)Oc1ccc(Cl)cc1 (stereo not drawn) | inactive: 1.42%
80 | CP(=S)(Nn1cnnc1)Oc1ccccc1 (stereo not drawn) | inactive: -2.53%
81 | COc1ccccc1OP(C)(=O)Nc1ccccc1 (stereo not drawn) | inactive: -1.55%
82 | CP(=O)(Nc1ccccc1Br)Oc1ccccc1 (stereo not drawn) | inactive: 5.23%
83 | O=[N+]([O-])c1cc([N+](=O)[O-])c(Nc2cccnc2)c([N+](=O)[O-])c1 | inactive: -37.4%
84 | Cc1cccc(C)c1OP(C)(N)=O (stereo not drawn) | inactive: -0.23%
85 | CC(C)(C)c1ccc(OP(C)(=O)Nc2ccc(SC(F)(F)F)cc2)cc1 (stereo not drawn) | inactive: -4.56%
86 | O=[N+]([O-])c1ccc2c(c1)C=Nc1ccccc1O2 | inactive: 0.42%
87 | CCOC(=O)c1ccc(NP(C)(=O)Oc2ccccc2)cc1 (stereo not drawn) | inactive: -1.52%
88 | Cc1ccc(NP(C)(=O)Oc2ccccc2)c(C)c1 (stereo not drawn) | inactive: -0.72%
89 | COc1ccccc1OP(C)(=O)Nc1ccc(C)cc1 (stereo not drawn) | inactive: 0.35%
90 | COc1ccc(OP(C)(=O)Nc2cccc(F)c2)cc1 (stereo not drawn) | inactive: -0.26%
91 | COc1ccccc1OP(C)(=O)Nc1cc(Cl)ccc1C (stereo not drawn) | inactive: -2.33%
92 | Cc1cc(C)cc(OP(C)(N)=O)c1 (stereo not drawn) | inactive: 1.48%
93 | CCN(CC)CCCOC(=O)C(O)(c1ccccc1)c1ccccc1 | inactive: -1.91%

From PubChem BioAssay AID1259313 (Sanford-Burnham Center for Chemical Genomics, 2017)
